Protein sequences, listed by entry. Tags and fused reporters are not part of them.
UniProt P28482, whole entry: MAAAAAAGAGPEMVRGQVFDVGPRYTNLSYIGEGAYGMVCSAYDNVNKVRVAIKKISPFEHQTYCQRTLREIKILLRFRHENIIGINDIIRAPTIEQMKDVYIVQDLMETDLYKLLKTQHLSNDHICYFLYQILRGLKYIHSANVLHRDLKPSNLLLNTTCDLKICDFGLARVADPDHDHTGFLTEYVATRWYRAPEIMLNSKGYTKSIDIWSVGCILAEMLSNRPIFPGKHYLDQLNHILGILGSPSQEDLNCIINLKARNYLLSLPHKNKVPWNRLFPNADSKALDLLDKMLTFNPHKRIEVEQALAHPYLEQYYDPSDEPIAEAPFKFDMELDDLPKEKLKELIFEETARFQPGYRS

In ChEMBL document CHEMBL4425105, “Discovery of (S)-1-(1-(4-Chloro-3-fluorophenyl)-2-hydroxyethyl)-4-(2-((1-methyl-1H-pyrazol-5-yl)amino)pyrimidin-4-yl)pyridin-2(1H)-one (GDC-0994), an Extracellular Signal-Regulated Kinase 1/2 (ERK1/2) Inhibitor in Early Clinical Development” (J Med Chem, 2016):

molecular target: Mitogen-activated protein kinase 1 (Homo sapiens, UniProt P28482)

Compound | IC50 [nM]
Cc1cc(Nc2nccc(-c3ccn([C@H](CO)c4ccc(Cl)c(F)c4)c(=O)c3)n2)n(C)n1 | 13
CCn1cc(Nc2nccc(-c3ccn([C@H](CO)c4ccc(Cl)c(F)c4)c(=O)c3)n2)c(C)n1 | 7.7
Cc1nn(C)cc1Nc1nccc(-c2ccn([C@H](CO)c3ccc(Cl)c(F)c3)c(=O)c2)n1 | 5.9
